According to patent US12686694B2, “Method of extracting carbonic acid, aliphatic acids, esters and alcohols from an aqueous medium” (EVONIK OPERATIONS GMBH, priority 2019, dated 2026):

Test: Extraction of hexanol from aqueous solution with trialkylphosphine in alkane or pure trialkylphosphine
Format: physicochemical

CCCCCCCCCCCCCC [none (100% tetradecane), tetradecane]
Equilibrium pH (hexanol extraction with buffer in aqueous phase): 5.77 | Aq. Hexanol conc. (before) (with ammonium acetate buffer in aqueous phase, mass ratio 9 to 1): 4.15 g/kg
